From patent US9884868B2, “TGF-beta inhibitors” (Rigel Pharmaceuticals, Inc., priority 2015, dated 2018)

Amino acid sequences for entries named in this document (tags omitted). Residues count along the entry.
UniProt P36897, 34-503 T204D: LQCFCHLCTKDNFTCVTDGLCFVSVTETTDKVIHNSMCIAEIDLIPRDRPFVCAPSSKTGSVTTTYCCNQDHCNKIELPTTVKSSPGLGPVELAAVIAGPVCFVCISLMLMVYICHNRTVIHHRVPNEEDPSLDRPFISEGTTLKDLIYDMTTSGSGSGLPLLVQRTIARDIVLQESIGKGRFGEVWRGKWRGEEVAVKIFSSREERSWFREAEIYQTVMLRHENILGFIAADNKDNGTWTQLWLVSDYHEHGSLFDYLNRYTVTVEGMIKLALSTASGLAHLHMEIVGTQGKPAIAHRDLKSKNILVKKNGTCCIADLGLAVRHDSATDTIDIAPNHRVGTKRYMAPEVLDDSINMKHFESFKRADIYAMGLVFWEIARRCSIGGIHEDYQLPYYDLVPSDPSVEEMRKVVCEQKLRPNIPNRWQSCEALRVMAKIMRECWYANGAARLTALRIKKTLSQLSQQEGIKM

Molecular target: HIS-TGF-βR1 T204D (Homo sapiens (Human), UniProt P36897, T204D)
Test: HTRF probe displacement assay with HIS-TGF-βR1 T204D
Conditions: read-out: TGFbr1 IC50, 1 nM HIS-TGF-βR1 T204D, 1 hour at room temperature

Question: How did the IC50 turn out when `NC(=O)c1cnc2ccc(-c3c(-c4ccc(F)cc4)ncn3C3CC(F)C3)nn12` (stereo not drawn) [127′, 6-(1-(3-fluorocyclobutyl)-4-(4-fluorophenyl)-1H-imidazol-5-yl)imidazo[1,2-b]pyridazine-3-carboxamide] was run?
Answer: The IC50 was 4.9 nM.

Question: How did the IC50 turn out when `N#Cc1cnc2ccc(-c3c(-c4ccc(F)cc4C(F)(F)F)ncn3CC(F)F)nn12` [261′, 6-(1-(2,2-difluoroethyl)-4-(4-fluoro-2-(trifluoromethyl)phenyl)-1H-imidazol-5-yl)imidazo[1,2-b]pyridazine-3-carbonitrile] was run?
Answer: Its IC50 is 89.4 nM.

Question: How did the IC50 turn out when `N#Cc1cnc2ccc(-c3c(-c4cccc(-c5ccccc5)c4)ncn3CC(F)F)nn12` [257′, 6-(4-([1,1′-biphenyl]-3-yl)-1-(2,2-difluoroethyl)-1H-imidazol-5-yl)imidazo[1,2-b]pyridazine-3-carbonitrile] was run?
Answer: Its IC50 is 64.2 nM.

Question: With `N#Cc1cnc2ccc(-c3c(-c4ccc(F)cc4)ncn3C3CC(F)(F)C3)nn12` [3′, 6-(1-(3,3-difluorocyclobutyl)-4-(4-fluorophenyl)-1H-imidazol-5-yl)imidazo[1,2-b]pyridazine-3-carbonitrile] as the compound, how does the IC50 read?
Answer: The IC50 was 14.2 nM.

Question: With `N#CCN1CC(n2cnc(-c3ccc(F)cc3)c2-c2ccc3ncc(C#N)n3n2)C1` [Example 194′, 6-(1-(1-(cyanomethyl)azetidin-3-yl)-4-(4-fluorophenyl)-1H-imidazol-5-yl)imidazo[1,2-b]pyridazine-3-carbonitrile] as the compound, how does the IC50 read?
Answer: Its IC50 is 10.2 nM.

Question: `CC(=O)N1CCn2c(nc(-c3ccc(F)cc3)c2-c2ccc3ncc(C(N)=O)n3c2)C1` [292′, 6-(7-acetyl-2-(4-fluorophenyl)-5,6,7,8-tetrahydroimidazo[1,2-a]pyrazin-3-yl)imidazo[1,2-a]pyridine-3-carboxamide] was tested. Which IC50 did it give?
Answer: The IC50 was 40.8 nM.
